Experimental data from patent KR20070037041A, “누에 수번데기로부터 아데노신 유도체 화합물을 정제하는방법 및 아데노신 유도체 화합물을 포함하는 발기부전치료용 조성물” (대한민국(관리부서:농촌진흥청장), priority 2005, dated 2007).

Tested on: bovine endothelial cells (CPAE) [소내피세포(CPAE)]
Format: cell-based

Which cytotoxicity does the source give for “5-{6-(디메틸아미노)-9H-푸린-9-일}-테트라히드로-4'-푸란-3'-올-5'-o-테트라파이로(tetrafyro)-2H-피란-3'',4'',5''-트리올 [RPC-IV]” here?
Its cytotoxicity is “무독성”.
